Laboratory results: patent US20160279108A1, “TARGETED MTOR INHIBITORS” (UNIVERSITY OF KANSAS, priority 2015, published 2016)

Legend:
[1] = In vitro drug release from HA-drug conjugates by dialysis; format: physicochemical
Protocol: To prevent bacteria growth, 0.05% sodium azide was added to the serum release medium, and the medium was changed several times a day to maintain sink conditions.

[2] = test system: MDA-MB-468 cells; details: CD44 positive MDA-MB-468 cells, 10 μM, p=0.027
[3] = Tissue distribution in tumor-bearing mice; format: in vivo, BALB/c mice
Protocol: Drug tissue distribution was determined in female BALB/c mice (n=5). Tissue samples (50 mg) in 500 μL PBS were homogenized using a Tissue Tearor (BioSpec Products, Inc., Bartivesville, Okla.). The homogenized tissue was mixed with 250 μL ZnSO4 and 500 μL methanol. The mixture solution was centrifuged and the supernatant was analyzed by LC/MS.
In the tissue distribution study, BLAB/c mice were administered the drugs 12 h before being euthanized. Major organs (liver, kidneys, hear, spleen, lungs, brain, muscle), tumor and lymph nodes were excised and lightly washed with PBS. The organs were stored at −80° C. until analyzed by LC/MS.

[4] = Pharmacokinetics study in rats; format: in vivo, Sprague-Dawley rats; details: for AUC0→∞ greater than that of the free drug / total body clearance slower than that of the free drug: HA-L-Rapa s.c. vs free rapamycin i.p.
Protocol: Whole blood was withdrawn (100 μL) from the tail vein at 0 min, 5 min, 30 min, 1 h, 2 h, 4 h, 6 h, 12 h, 24 h and 48 h after dosing and placed in heparinized tubes (BD Vacutainer® Lithium Heparin 37 USP unit, BD Franklin Lakes, N.J.). The whole blood was centrifuged at 15,000×g for 10 min, and the plasma was frozen at −80° C. until analyzed. The animal use statement was approved by the University of Kansas Institutional Animal Care and Use Committee. Plasma samples and stander curves were prepared using a procedure reported previously.

[5] = mice, 12 h post 10 mg/kg equivalent rapamycin, i.p. (free rapamycin), s.c. (HA-L-Rapa), Mean ± SD, n=5
[6] = listed as rapamycin conjugated to hyaluronic acid by a 3-amino-4-methoxy-benzoic acid link
[7] = free rapamycin i.p., HA-L-Rapa s.c., Mean ± SD, n=3

HA-Rapamycin-42-(3′-amino-4′-methoxy)benzoate [HA-L-Rapa]
rate constant of release ([1]; PBS, 37° C.): 0.01767 h⁻¹ | rate constant of release ([1]; serum): 0.00344 h⁻¹ | decrease of cell-viability compared to rapamycin [2]: 8.72% | drug concentration in lung greater than the free drug treatment group ([3]; 12 h after s.c. injection): 3.23 fold | drug concentration in lymph greater than the free drug treatment group ([3]; 12 h after s.c. injection): 2.78 fold | drug concentration in tumor greater than the free drug treatment group ([3]; 12 h after s.c. injection): 1.56 fold | Mean concentration of rapamycin in Brain [3, 5]: 195.01 ± 48.56 µg/g | Mean concentration of rapamycin in Heart [3, 5]: 358.88 ± 110.31 µg/g | Mean concentration of rapamycin in Kidneys [3, 5]: 495.04 ± 349.05 µg/g | Mean concentration of rapamycin in Liver [3, 5]: 565.56 ± 54.06 µg/g | Mean concentration of rapamycin in Lungs [3, 5]: 1990.00 ± 634.80 µg/g | Mean concentration of rapamycin in Lymph [3, 5]: 1972.78 ± 634.80 µg/g | Mean concentration of rapamycin in Muscle [3, 5]: 927.64 ± 453.48 µg/g | Mean concentration of rapamycin in Spleen [3, 5]: 1386.31 ± 342.71 µg/g | Mean concentration of rapamycin in Tumor [3, 5]: 1931.84 ± 195.46 µg/g | AUC0→∞ greater than that of the free drug [4]: 2.78 fold | total body clearance slower than that of the free drug [4]: 2.09 fold | AUC0→∞ greater than that of the free drug [4, 6]: 2.96 fold | total body clearance slower than that of the free drug [4, 6]: 8.82 fold | Vd ([4]; free rapamycin i.p., HA-L-Rapa s.c., 10 mg/kg equivalent rapamycin, Mean ± SD, n=3): 12.88 ± 5.24 L/kg | AUC0→∞ [4, 7]: 6570 ± 920 ng·h/mL | CI [4, 7]: 33.7 ± 12.2 mL/min/kg | t1/2 [4, 7]: 27.95 ± 13.33 h | Cmax ([4]; plasma, free rapamycin i.p., HA-L-Rapa s.c., Mean ± SD, n=3): 544.84 ± 123.56 ng/mL
